Experimental data taken from patent US8609699B2, “Oxotetrahydrofuran-2-yl-benzimidazole derivative” (MSD K.K., priority 2008, dated 2013).

Amino acid sequences for entries named in this document (tags omitted). Residues count along the entry.
UniProt P35557, 1-466 isoform 2: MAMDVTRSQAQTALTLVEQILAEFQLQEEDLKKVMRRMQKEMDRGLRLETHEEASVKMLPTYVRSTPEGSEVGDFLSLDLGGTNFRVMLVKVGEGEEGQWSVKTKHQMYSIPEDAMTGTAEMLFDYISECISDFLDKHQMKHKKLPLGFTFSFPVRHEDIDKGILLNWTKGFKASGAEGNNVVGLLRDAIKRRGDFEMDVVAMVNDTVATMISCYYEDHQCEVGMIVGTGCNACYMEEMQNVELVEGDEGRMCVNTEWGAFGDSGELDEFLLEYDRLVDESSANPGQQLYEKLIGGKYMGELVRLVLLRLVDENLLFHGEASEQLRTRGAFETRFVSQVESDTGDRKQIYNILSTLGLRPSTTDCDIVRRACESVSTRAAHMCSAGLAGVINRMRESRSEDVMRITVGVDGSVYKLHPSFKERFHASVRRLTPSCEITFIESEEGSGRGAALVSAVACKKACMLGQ

Biological target: recombinant human liver GK (Homo sapiens, UniProt P35557)
Experiment: Glucokinase-activating effect (Thio-NADH, G6PDH-coupled assay)
Settings: final glucose 2.5 mM; 30° C; racemates, comparison with WO2007/007910
Description: The excellent glucokinase-activating effect of the compounds of formula (I) may be determined by a method described in literature (for example, Diabetes, Vol. 45, pp. 1671-1677, 1996), or in accordance with it.
The glucokinase activity may be determined not by directly measuring glucose-6-phosphate but by measuring the level of Thio-NADH, which is produced when a reporter enzyme, glucose-6-phosphate dehydrogenase produces phosphogluconolactone from glucose-6-phosphate, and based on the level, the degree of glucokinase activation by the compound tested may be determined.
In this assay, used was a recombinant human liver GK, which was expressed by E. coli as a FLAG fusion protein therein and was purified by ANTIFLAG M2 AFFINITY GEL (Sigma). […]
After the start of the reaction, the increase in the absorbance at 405 nm was measured for 12 minutes at intervals of 30 seconds, and the increase for the first 5 minutes was used for assessing the compound tested. FLAG-GK was added so that the absorbance increase after 5 minutes in the presence of 1% DMSO could be from 0.04 to 0.06.
The OD level of the DMSO control was set as 100%; and the OD level of the test compound at different concentrations was determined. […]
The GK activating effect of the compounds of the invention was measured according to the method as above, and the results are shown in Table 5 below.

`N#Cc1ccc(Oc2cc3nc(-c4ccccn4)[nH]c3cc2C2CCC(=O)O2)cn1` (racemic) was tested, and the EC50 was 1870 nM.
